Laboratory results reported in patent publication US9636336B2, “Aminoester derivatives” (CHIESI FARMACEUTICI S.p.A., priority 2015, dated 2017).
Read-outs that look alike come from different tables or passages of the source.

The chains behind the UniProt entries cited, without tags or fusion partners. A line that says so, or that is headed by a name, gives the form on record, which may keep a tag or linker. Residues count along the entry.
UniProt P20309, whole entry: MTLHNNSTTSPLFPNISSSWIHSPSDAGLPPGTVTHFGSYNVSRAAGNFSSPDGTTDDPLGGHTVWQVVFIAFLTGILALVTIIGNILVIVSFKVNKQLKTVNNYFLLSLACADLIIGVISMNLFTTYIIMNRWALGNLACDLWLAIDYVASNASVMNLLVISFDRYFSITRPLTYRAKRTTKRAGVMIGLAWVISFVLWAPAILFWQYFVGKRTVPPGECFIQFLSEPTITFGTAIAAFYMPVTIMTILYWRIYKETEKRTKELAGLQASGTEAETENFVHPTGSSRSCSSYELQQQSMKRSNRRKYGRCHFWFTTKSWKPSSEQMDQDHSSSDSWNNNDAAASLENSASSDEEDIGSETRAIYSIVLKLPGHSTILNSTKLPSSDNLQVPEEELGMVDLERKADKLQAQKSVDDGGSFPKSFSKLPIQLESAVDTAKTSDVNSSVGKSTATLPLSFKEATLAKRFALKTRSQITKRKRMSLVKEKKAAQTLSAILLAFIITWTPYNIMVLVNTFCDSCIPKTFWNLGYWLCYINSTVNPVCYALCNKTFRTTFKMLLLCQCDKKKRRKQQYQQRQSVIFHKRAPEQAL
UniProt Q07343, 212-736 with tags or gaps limits assumed: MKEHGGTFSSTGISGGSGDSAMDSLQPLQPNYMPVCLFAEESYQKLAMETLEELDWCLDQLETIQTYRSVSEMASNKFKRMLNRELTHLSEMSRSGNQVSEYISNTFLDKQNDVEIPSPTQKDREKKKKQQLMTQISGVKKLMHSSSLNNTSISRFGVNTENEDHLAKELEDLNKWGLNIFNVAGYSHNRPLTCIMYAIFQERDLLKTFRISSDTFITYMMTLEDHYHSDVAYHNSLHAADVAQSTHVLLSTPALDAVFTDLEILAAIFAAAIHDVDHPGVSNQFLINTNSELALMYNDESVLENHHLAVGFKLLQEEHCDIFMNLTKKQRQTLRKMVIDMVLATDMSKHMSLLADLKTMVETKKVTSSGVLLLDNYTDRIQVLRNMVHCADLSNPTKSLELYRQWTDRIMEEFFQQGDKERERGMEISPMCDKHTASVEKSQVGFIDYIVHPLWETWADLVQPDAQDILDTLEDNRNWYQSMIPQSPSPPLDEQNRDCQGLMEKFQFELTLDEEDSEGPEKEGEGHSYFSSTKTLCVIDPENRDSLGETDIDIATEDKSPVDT

Tests used:
[1] = target: Human M3 receptor membranes (Homo sapiens (Human), UniProt P20309); assay: M3 Receptor radioligand binding assay
Human recombinant PDE4B2 = Human recombinant PDE4B2 (Homo sapiens (Human), UniProt Q07343); assay: PDE4B2 HTRF assay; type: biochemical; details: read-out: PDE4B2 IC50 activity

| SMILES | IC50 ([1]; read-out: M3 IC50 activity) [µM] | IC50 (Human recombinant PDE4B2) [µM] | IC50 ([1]; read-out: M3 IC50 activity, tested form: formate) [µM] |
| --- | --- | --- | --- |
| COCCN1CCC(COC(=O)C(NCc2ccc(C(=O)O[C@@H](Cc3c(Cl)c[n+]([O-])cc3Cl)c3ccc(OC)c(OC)c3)s2)c2ccccc2)CC1 (single isomer, unassigned) | 0.01 to 0.1 | 0.001 to 0.01 |  |
| COc1ccc([C@H](Cc2c(Cl)c[n+]([O-])cc2Cl)OC(=O)c2ccc(CNC(C(=O)OCC3(C)CCN(C)CC3)c3ccccc3)s2)cc1OC (single isomer, unassigned) | 0.01 to 0.1 | 0.001 to 0.01 |  |
| COc1ccc([C@H](Cc2c(Cl)c[n+]([O-])cc2Cl)OC(=O)c2ccc(CNC(C(=O)OCC3CCN(C)CC3)C3CCCCC3)s2)cc1OC (single isomer, unassigned) | 0.01 to 0.1 |  |  |
| COc1ccc([C@H](Cc2c(Cl)c[n+]([O-])cc2Cl)OC(=O)c2ccc(CNC(C(=O)OC[C@@H]3CCCCN3C)c3ccccc3)s2)cc1OC (single isomer, unassigned) | 0.001 to 0.01 |  |  |
| COc1ccc([C@H](Cc2c(Cl)c[n+]([O-])cc2Cl)OC(=O)c2ccc(CNC(C(=O)OC[C@H]3CCCCN3C)c3ccccc3)s2)cc1OC (single isomer, unassigned) | 0.001 to 0.01 |  |  |
| COc1ccc([C@H](Cc2c(Cl)c[n+]([O-])cc2Cl)OC(=O)c2ccc(CNC(C(=O)OC[C@H]3CCN(C)C3)c3ccccc3)s2)cc1OC (single isomer, unassigned) | 0.01 to 0.1 | 0.001 to 0.01 |  |
| COc1ccc([C@H](Cc2c(Cl)c[n+]([O-])cc2Cl)OC(=O)c2ccc(CNC(CO)(C(=O)OCC3CCN(C)CC3)c3cccs3)s2)cc1OC (single isomer, unassigned) |  |  | 0.001 to 0.01 |
| COc1ccc([C@H](Cc2c(Cl)c[n+]([O-])cc2Cl)OC(=O)c2ccc(CNC(C(=O)OCC3(F)CCN(C)CC3)c3ccccc3)s2)cc1OC (single isomer, unassigned) [Example 53] |  | 0.001 to 0.01 |  |
| COc1ccc([C@H](Cc2c(Cl)c[n+]([O-])cc2Cl)OC(=O)c2ccc(CNC(C(=O)OCC3(F)CCN(C)CC3)c3ccccc3)s2)cc1OC (single isomer, unassigned) [Example 54] |  | 0.001 to 0.01 |  |
| COc1ccc(C(Cc2c(Cl)c[n+]([O-])cc2Cl)OC(=O)c2ccc(CNC(C(=O)OCC3CCN(C)CC3)c3ccccc3)s2)cc1OC1CCCC1 (single isomer, unassigned) [Example 57] | 0.01 to 0.1 | 0.001 to 0.01 |  |
| COc1ccc(C(Cc2c(Cl)c[n+]([O-])cc2Cl)OC(=O)c2ccc(CNC(C(=O)OCC3CCN(C)CC3)c3ccccc3)s2)cc1OC1CCCC1 (single isomer, unassigned) [Example 58] | 0.001 to 0.01 |  |  |
| COc1ccc([C@H](Cc2c(Cl)c[n+]([O-])cc2Cl)OC(=O)c2ccc(CNC(C(=O)OC[C@@H]3CCN(C)C3)c3ccccc3)s2)cc1OC (single isomer, unassigned) [Example 75] | 0.01 to 0.1 | 0.001 to 0.01 |  |
| COc1ccc([C@H](Cc2c(Cl)c[n+]([O-])cc2Cl)OC(=O)c2ccc(CNC(C(=O)OC[C@@H]3CCN(C)C3)c3ccccc3)s2)cc1OC (single isomer, unassigned) [Example 76] | 0.001 to 0.01 | 0.001 to 0.01 |  |
| COc1ccc([C@H](Cc2c(Cl)c[n+]([O-])cc2Cl)OC(=O)c2ccc(CNC(C(=O)OCCN3CCCC3)c3ccccc3)s2)cc1OC (single isomer, unassigned) [Example 83] |  | 0.001 to 0.01 |  |
| COc1ccc([C@H](Cc2c(Cl)c[n+]([O-])cc2Cl)OC(=O)c2ccc(CNC(C(=O)OCCN3CCCC3)c3ccccc3)s2)cc1OC (single isomer, unassigned) [Example 84] |  | 0.001 to 0.01 |  |
| COc1ccc([C@H](Cc2c(Cl)c[n+]([O-])cc2Cl)OC(=O)c2ccc(CNC(C(=O)OC[C@H]3CCCN(C)C3)c3ccccc3)s2)cc1OC (single isomer, unassigned) [Example 90] | 0.01 to 0.1 |  |  |
| COc1ccc([C@H](Cc2c(Cl)c[n+]([O-])cc2Cl)OC(=O)c2ccc(CNC(C(=O)OC[C@H]3CCCN(C)C3)c3ccccc3)s2)cc1OC (single isomer, unassigned) [Example 91] | 0.001 to 0.01 |  |  |
| COc1ccc([C@H](Cc2c(Cl)c[n+]([O-])cc2Cl)OC(=O)c2ccc(CNC(C)(C(=O)OCC3CCN(C)CC3)c3ccccc3)s2)cc1OC (single isomer, unassigned) [Example 103] | 0.001 to 0.01 | 0.001 to 0.01 |  |
| COc1ccc([C@H](Cc2c(Cl)c[n+]([O-])cc2Cl)OC(=O)c2ccc(CNC(C)(C(=O)OCC3CCN(C)CC3)c3ccccc3)s2)cc1OC (single isomer, unassigned) [Example 104] | 0.01 to 0.1 |  |  |
| COCCOc1cc([C@H](Cc2c(Cl)c[n+]([O-])cc2Cl)OC(=O)c2ccc(CNC(C(=O)OCC3CCN(C)CC3)c3ccccc3)s2)ccc1OC(F)F (single isomer, unassigned) [Example 123] | 0.01 to 0.1 | 0.001 to 0.01 |  |
| COCCOc1cc([C@H](Cc2c(Cl)c[n+]([O-])cc2Cl)OC(=O)c2ccc(CNC(C(=O)OCC3CCN(C)CC3)c3ccccc3)s2)ccc1OC(F)F (single isomer, unassigned) [Example 124] | 0.001 to 0.01 | 0.001 to 0.01 |  |
| COc1ccc([C@H](Cc2c(Cl)c[n+]([O-])cc2Cl)OC(=O)c2ccc(CNC(CO)(C(=O)OC[C@H]3CCN(C)C3)c3ccccc3)s2)cc1OC (single isomer, unassigned) [Example 126] |  | 0.001 to 0.01 |  |
| COc1ccc([C@H](Cc2c(Cl)c[n+]([O-])cc2Cl)OC(=O)c2ccc(CNC(CO)(C(=O)OC[C@H]3CCN(C)C3)c3ccccc3)s2)cc1OC (single isomer, unassigned) [Example 127] | 0.01 to 0.1 |  |  |
| COc1ccc([C@H](Cc2c(Cl)c[n+]([O-])cc2Cl)OC(=O)c2ccc(CNC(CO)(C(=O)OC[C@@H]3CCN(C)C3)c3ccccc3)s2)cc1OC (single isomer, unassigned) [Example 128] |  | 0.001 to 0.01 |  |
| COc1ccc([C@H](Cc2c(Cl)c[n+]([O-])cc2Cl)OC(=O)c2ccc(CNC(CO)(C(=O)OC[C@@H]3CCN(C)C3)c3ccccc3)s2)cc1OC (single isomer, unassigned) [Example 129] | 0.01 to 0.1 | 0.001 to 0.01 |  |
